# Only a part is listed here, and it is no random draw. Results filed as inconclusive are left out. Active and inactive are the calls of the source. How the source made its calls, unless noted: active means hit-call score of the fitted dose curve at least 0.9, where 1 is the maximum; inactive means score below 0.9.
# How the values were obtained:
# [1] = APR_HepG2_CellCycleArrest_24hr: Apredica 24-hour HepG2 Assay for Cell Cycle Arrest (AID 2282905); details: imaging, actives raise or lower the signal;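 further: cell cycle arrest scored as ratio of 2N to 4N nuclear DNA content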
# How it was run: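 Cell cycle arrest is scored from nuclear DNA content measured by high-content imaging of Hoechst 33342-stained HepG2 cells following 24-hour treatment at ten concentrations up to 200 uM, with DMSO as baseline.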
# [2] = APR_HepG2_NuclearSize_24hr: Apredica 24-hour HepG2 Assay for Nuclear Size (AID 2282907); details: high-content imaging, actives raise or lower the signal
# How it was run: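 Compounds in DMSO (final 0.5%) were added to human HepG2 hepatoma cells at ten concentrations up to 200 uM for 24 hr. Fixed nuclei were stained with Hoechst 33342, and nuclear diameter was quantified from automated images.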
# [3] = APR_HepG2_CellLoss_24hr: Apredica 24-hour HepG2 Assay for Cell Loss (AID 2282908); details: high-content imaging;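 further: fit in both directions so a hit may be cell loss or gain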
# How it was run: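 Cell number is quantified by fluorescence imaging of Hoechst 33342-stained nuclei following dosing at 0.39–200 uM in 0.5% DMSO. Curves are fitted in both directions from the DMSO baseline.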
# [4] = APR_HepG2_MicrotubuleCSK_24hr: Apredica 24-hour HepG2 Assay for Microtubule CSK Stabilty (AID 2282909); details: HepG2 microtubule cytoskeleton imaging, actives raise or lower the signal
# How it was run: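 Steps: dose HepG2 for 24 h (0.39–200 uM, 0.5% DMSO); fix 30 min in 3.7% formaldehyde at room temperature; permeabilize; stain alpha-tubulin 60 min; image microtubule cytoskeleton at 20x. Signal change fitted in both directions relative to DMSO.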
# [5] = APR_HepG2_MitoticArrest_24hr: Apredica 24-hour HepG2 Assay for Mitotic Arrest (AID 2282910); details: high-content imaging, actives raise or lower the signal
# How it was run: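 Compounds are dosed onto HepG2 cells across ten concentrations up to 200 uM for 24 hr. Cells are then fixed in 3.7% formaldehyde, permeabilised, and labelled for phospho-histone H3 and nuclei; images are scored by cell cycle analysis and fitted bidirectionally relative to DMSO.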
# [6] = APR_HepG2_MitoMembPot_24hr: Apredica 24-hour HepG2 Assay for Mitochondrial Membrane Potential (AID 2282911); details: imaging, actives raise or lower the signal
# How it was run: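 Human hepatoma HepG2 cultures received ten compound concentrations up to 200 uM for 24 hr. Membrane-potential dye signal, captured by automated fluorescence microscopy, was scored for gain or loss against DMSO controls.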
# [7] = APR_HepG2_MitoMass_24hr: Apredica 24-hour HepG2 Assay for Mitochondrial Mass (AID 2282912); details: high-content imaging, actives raise or lower the signal
# How it was run: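 The liver line HepG2 was dosed in duplicate across a 0.39–200 uM series, with final DMSO held at 0.5% v/v, and harvested at 24 hr. High-content imaging measured mitochondrial dye staining.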
# [8] = APR_HepG2_p53Act_24hr: Apredica 24-hour HepG2 Assay for p53 Activation (AID 2282913); details: high-content imaging, actives raise or lower the signal;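 further: p53 protein immunofluorescence averaged per cell in HepG2 with Hoechst nuclei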
# How it was run: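 Automated fluorescence imaging quantifies p53 immunostaining in HepG2 cells after a 24 hr exposure (0.39–200 uM, duplicate, 0.5% DMSO). Nuclei are located by Hoechst 33342 staining.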
# [9] = APR_HepG2_CellCycleArrest_72hr: Apredica 72-hour HepG2 Assay for Cell Cycle Arrest (AID 2282914); details: high-content imaging, actives raise or lower the signal
# How it was run: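 Cell cycle arrest in HepG2 was scored from nuclear DNA content after 72 hr compound treatment (0.39–200 uM). Activity, either gain or loss, was fitted against the DMSO baseline.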
# [10] = ACEA_ER_80hr: ACEA Biosciences xCELLigence Real-Time Cell Analysis on Estrogen Receptor Agonism for Proliferation (AID 2282667; active means hit-call score of the fitted dose curve at least 0.9, where 1 is the maximum); details: T47D proliferation, impedance (xCELLigence), 80 h
# Description: ACEA_ER is a cell-based, single-readout assay that uses T47D, a human breast cell line, with measurements taken at 80 hours after chemical dosing in a 96-well plate, although TO2 (mc0.srcf) used a 384-well plate. Differences in plate size can be ignored given data normalization.ACEA_ER_80hr is one of two assay component(s) measured or calculated from the ACEA_ER assay. It is designed to make measurements of real-time cell-growth kinetics, a form of growth reporter, as detected with electrical impedance signals by Real-Time Cell Electrode Sensor (RT-CES) technology.Data from the assay component ACEA_ER_80hr was analyzed into 1 assay endpoint. This assay endpoint, ACEA_ER_80hr_Positive, was analyzed in the positive analysis fitting direction relative to DMSO as the negative control and baseline of activity. Using a type of growth reporter, measures of the cells for gain-of-signal activity can be used to understand the signaling at the pathway-level as they relate to the gene ESR1. Furthermore, this assay endpoint can be referred to as a primary readout, because this assay has produced multiple assay endpoints where this one serves a signaling function. To generalize the intended target to other relatable targets, this assay endpoint is annotated to the nuclear receptor intended target family, where the subfamily is steroidal.
# The xCELLigence system Multi-E-Plate stations were used to measure the time-dependent response to chemicals. Each compound was tested in an eight-point, 1:4 serial dilution series starting at a maximum final concentration of 100 uM. A maximum starting concentration of 0.5% DMSO was present in the 100 uM chemical samples and was diluted along with the test article dilution series. The screen was performed in biological duplicate using two separate, 96-well, E-Plates 96 for each dilution series (n = 2). Positive controls (MG132 and E2) and a negative control (assay media) were tested in quadruplicate on each testing plate. […] Cellular responses were then recorded once every 5 min for the first 5 h, and once every hour for an additional 100 h.
compound,measurement,setting,value
O=[N+]([O-])c1ccccc1[N+](=O)[O-],outcome,[1],inactive
same,AC50,[2],active: 90.1 µM
same,AC50,[3],active: 66.4 µM
same,AC50,[4],active: 60.7 µM
same,AC50,[5],active: 60.7 µM
same,outcome,[6],inactive
same,AC50,[7],active: 81.6 µM
same,AC50,[8],active: 34.8 µM
same,AC50,[9],active: 72.3 µM
CC(C)OP(OC(C)C)OC(C)C,outcome,[10],inactive
ClCCNCCCl,outcome,[10],inactive
ClCCOP(OCCCl)OCCCl,outcome,[10],inactive

# Reference: PubChem BioAssay (EPA / NIEHS)
